Experimental data taken from PMC3716919, “Oxidative stress disruption of receptor-mediated calcium signaling mechanisms” (Journal of Biomedical Science, 2013).

Test system: CHO-M3 cells
Test: Cell viability, MTS reduction assay

## CC(C)(C)OO [tBHP, tert-butyl hydroperoxide]
90 min exposure, concentrations up to 20 mM
  cytotoxicity (MTS reduction): not observed
Exposure extended for an additional hour (150 min), data not shown
  lowest concentration with significant cytotoxicity: 1 mM
